Common to all, as to test: fluorescence polarisation
For orientation: Fluorescence polarisation rises when a labelled molecule tumbles more slowly, as on binding a larger partner.

Assay [1] deals with His6-SgbL (Streptomyces globisporus subsp. globisporus NRRL B2293).
The target in assay [2] is FITC-SgbA(leader) (Streptomyces globisporus subsp. globisporus NRRL B2293).
Assay [3] deals with FITC-SgbA(−15 to −23) (Streptomyces globisporus subsp. globisporus NRRL B2293).
The target of assay [4] is FITC-SgbA(−9 to −23) (Streptomyces globisporus subsp. globisporus NRRL B2293).
Assay [5] deals with FITC-SgbA(−11 to −28) (Streptomyces globisporus subsp. globisporus NRRL B2293).

By IC50 is commonly meant the concentration that inhibits the measured activity by half. A higher IC50 goes with weaker potency. Ac-SgbA(−1 to −20) (peptide) returned an IC50 in assay [1] of 174 µM.
The same measure, in the same setting: then SgbA(leader) (peptide), with 4.5 µM; and SgbA(−11 to −28) (peptide), with 16.5 µM.
The same measure, in the same setting: then Ac-SgbA(−15 to −23) (peptide), with 147 µM.
What is called Kd is a measure of binding affinity in units of concentration. The low end stands for a tighter complex, the high end for a looser complex. Regarding His6-SgbL (enzyme), the Kd came out at 0.188 µM in assay [2], 2.07 µM in assay [3], 0.744 µM in assay [4] and 0.53 µM in assay [5].
Consider Ac-SgbA(−9 to −23) (peptide), for which the IC50 in assay [1] was found to be 197 µM.
